Patent US20050026236A1, “PDE 10 cell-based assay and sequences” (Pfizer Inc, priority 2001, published 2005)

Target: PDE10A (UniProt Q9Y233)

COc1ccc(Cc2nccc3cc(OC)c(OC)cc23)cc1OC [Papaverine]
IC50 (read-out: IC50 value (PDE10A, text), competitive inhibitor): 17 nM | IC50 (substrate at 1/3 Km): 18 nM

Read-outs that look alike come from different tables or passages of the source.
